Data reported in patent publication US20190117770A1, “USES OF IMMUNOCONJUGATES TARGETING CD138” (Biotest AG, priority 2011, published 2019).

Tests used:
[1] = literature; cited from earlier work
[2] = Clinical trials of other immunoconjugates (literature); assay type: in vivo, human; settings: assuming 70 kg and 1.9 m^2 body surface area

T-DM1
MTD, once weekly regimen [1]: MTD at 2.4 mg/kg | Corresponds to total concentration of [2]: 168 mg
